# In patent US9289381B2, “Stabilization and storage of biological pharmaceutical compositions” (The University of North Carolina at Charlotte, priority 2009, dated 2016):
# Legend:
# [1] = Osmolality by vapor pressure osmometer, osmotic coefficient; format: physicochemical
# [2] = test system: J774 murine macrophage cell line; assay: Resazurin metabolism (cell viability) assay
# [3] = Miscibility with water and complemented media
substance,measurement,setting,value
"Choline bis(2,4,4-trimethyl pentyl) phosphinate",osmotic coefficient (φ),"[1]; 100 mM in water, 1 indicates 100% dissociation",0.5
same,"Osmotic Coef., φ in H2O",[1]; 100 mM solutions in deionized water,0.48
same,"Log EC50, μM (Dose Response Model)","[2]; J774, 48 h, value is the logarithm of EC50, error of last digit in parentheses, equation 1",2.39 (2) μM
same,EC50,"[2]; J774, 48 h exposure",≤ 250 µM
same,solution behaviour,[3]; 1 mM stock solution,miscible with water
same,solution behaviour,"[3]; 10 and 100 mM, 4° C.",appeared to precipitate
same,solution behaviour,"[3]; 10 and 100 mM, 25° C. and 37° C.",form an emulsion or dispersion
